# Data as given in patent US20260382729A1, “HETEROBIFUNCTIONAL COMPOUNDS AS p53 ACETYLATORS” (published 2026).
# Legend:
# [1] = system: K382 acetylation in NCI-H1299 p53-null cells; experiment: p53K382ac level, Western blot, NCI-H1299 p53-null; conditions: 0, 1, 3, 10 μM, 24 h
# Experimental: . […] We also confirmed that the effect of MS78 on inducing p53 Y220C K382 acetylation was abolished in p300 knockdown cells (FIG. 7F).
# FIG. 7. […] . Cell viability of MS78, PK9328 and compound 33 in (A) NCI-H1299 p53-null and (B) NCI-H1299 p53Y220C cells. The cells were treated with the indicated compounds at the indicated concentrations for 72 h. The mean values ±SD from three independent experiments are shown. […] . Right, quantification of the p53K382ac protein level normalized to Vinculin from two independent experiments. […] . Total cell lysate was used for western blots, as previously described.^47 The following primary antibodies were used in the study: Vinculin (Cell Signaling Technology [CST], 13901), p53 (CST, 2527), acetyl-p53 (lys-382) (CST, 2525), acetyl-p53 (lys-379) (CST, 2570), p21 (CST, 2947), p300 (CST, 86377), p53 polyclonal antibody (Proteintech, 10442-1-AP). Blots were imaged using fluorescence-labeled secondary antibodies on LI-COR Odyssey CLx Imaging Systems.
# U-2 OS cells = experiment: cell viability, U-2 OS (WT p53); conditions: U-2 OS (WT p53), 72 h
# Excerpt: Right: quantification of the normalized p53K382ac level in BxPC3 cells from three independent experiments. *P<0.05, **P<0.01, ***P<0.001. […] . GraphPad Prism 8 was used in analysis of raw data. […] . Cells were fixed and stained with crystal violet and the images are representative of two independent experiments. […] . NCI-H1299 (CRL-5803), BxPC3 (CRL-1687) and U-20S (HTB-96) were purchased from the American Tissue Culture Collection (ATCC, Manassas, VA). In addition, NUGC-3 were obtained from the Japan Health Science Research Resources Bank (JCRB, JCRB0822). NCI-H1299, BxPC3 and NUGC-3 were cultured in RPMI 1640 medium (Thermo Fisher Scientific Inc., Waltham, Massachusetts) supplemented with 10% heat-inactivated fetal bovine serum Gibco™ (FBS) (Life Technologies, Grand Island, NY) and 1% Gibco™ Penicillin/Streptomycin (Life Technologies, Grand Island, NY). […]
# The cell viability assay was performed as previously described.^48 Briefly 5×10^4 cells were seeded per well into 96-well microplates. […] Cell viability was evaluated using WST-8 reagent (CK04, Dojindo). Absorbance signals were obtained with Infinite F PLEX plate reader (TECAN, Morrisville, NC) at 450 nm with 690 nm as reference wavelength after 3 h incubation at 37 °C. […]
# [2] = system: p53K382ac level in U-2 OS cells; experiment: p53K382ac level, Western blot, U-2 OS; conditions: 0, 1, 3 and 10 μM, 24 h
# Excerpt: Right: quantification of the normalized p53K382ac level in BxPC3 cells from three independent experiments. *P<0.05, **P<0.01, ***P<0.001. […] . GraphPad Prism 8 was used in analysis of raw data. […] . Cells were fixed and stained with crystal violet and the images are representative of two independent experiments. […] . […] . Total cell lysate was used for western blots, as previously described.^47 The following primary antibodies were used in the study: Vinculin (Cell Signaling Technology [CST], 13901), p53 (CST, 2527), acetyl-p53 (lys-382) (CST, 2525), acetyl-p53 (lys-379) (CST, 2570), p21 (CST, 2947), p300 (CST, 86377), p53 polyclonal antibody (Proteintech, 10442-1-AP). Blots were imaged using fluorescence-labeled secondary antibodies on LI-COR Odyssey CLx Imaging Systems.
# [3] = system: mRNA levels of p53-target genes in NCI-H1299 p53Y220C cells; experiment: RT-qPCR of p53-target genes, NCI-H1299 p53Y220C; conditions: 10 μM, 24 h, vs DMSO
# Experimental: . FIG. 15. RT-qPCR analysis of relative mRNA levels of p53-target genes. NCI-H1299 p53Y220C stable cells were treated with DMSO, PK9328 or MS78 at 10 μM for 24 h. The mRNA expression for each target gene was first normalized to internal GAPDH and then calculated relative to the DMSO control. The mean value±SD for each gene (in technical triplicates from three biological experiments) is shown. ** P<0.01, *** P<0.001, ns: not significant.
# The RT-qPCR was performed as previously described.^47, 49 Briefly, NCI-H1299 p53Y220C stable cells were treated with DMSO or 10 μM of PK9328, Compound 17 or MS78 for 24 h. Total RNA was extracted using the Monarch Total RNA Miniprep Kit (T2010S, New England Biolabs), and cDNA was generated using the SuperScript IV First-Strand Synthesis System (18091050, Thermo Fisher). qPCR was performed using the PowerUp SYBR Green Master Mix (Thermo Fisher Scientific, A25742) on Agilent Technologies Stratagene Mx3005p qPCR system. RxnReady™ premixed primer pairs for p53, p21, TIGAR, BAX, PUMA and MDM2 were purchased from Integrated DNA Technologies, Inc. (Coralville, Iowa). GAPDH forward: 5′-[…]-3′, GAPDH reverse: 5′-GCCATCACGCCACAGTTTC-3′ was used as controls. The mRNA expression for each target gene was first normalized to internal GAPDH and then calculated relative to the DMSO control. Experiments were performed in triplicates.
smiles,measurement,setting,value
CCn1c2ccc(CNCCOCCOCCOCCn3cc(COc4ccc(CCc5nc6cc(-c7c(C)noc7C)ccc6n5CCN5CCOCC5)cc4F)nn3)cc2c2ccc(-c3cc(C)cs3)cc21,K382 acetylation,[1],did not induce K382 acetylation
same,GI50,U-2 OS cells,> 10 µM
same,p53K382ac level,[2],did not alter the p53K382ac level
same,Mdm2 mRNA expression,[3],less upregulation in CDKN1A and Mdm2 compared to PK9328
same,"TIGAR, BAX and PUMA (BBC3) mRNA expression",[3],little or modest effect
same,increase in p21 mRNA expression,[3],8 fold
same,p21 (CDKN1A) mRNA expression,[3],less upregulation in CDKN1A and Mdm2 compared to PK9328
